Laboratory results from patent US20210138080A1, “CONJUGATES” (GLYKOS BIOMEDICAL OY, priority 2018, published 2021).

System: HER2-positive cancer cells xenograft tumors
Assay: Galectin activity in xenograft tumors of tumour-bearing mice
Type: in vivo
Conditions: 10 mg/kg daily intravenous in PBS
Description: HER2-positive cancer cells are cultured as described above, injected subcutaneously to mice (about 1-10 million cells/mouse in Matrigel), and allowed to form xenograft tumors of about 100 mm^3. Mice are divided into groups that receive daily 100 μl intravenous injections of either I) PBS (vehicle control), II) 10 mg/kg trastuzumab in PBS (antibody control), III) 10 mg/kg DAR=2 6-succinyl-33DFTG-trastuzumab in PBS, or IV) 10 mg/kg DAR=8 6-succinyl-33DFTG-trastuzumab in PBS. […] The ADC therapy is further combined with immune checkpoint inhibitor therapy by intravenous injection of therapeutic dose of anti-PD-1 antibody or anti-PD-L1 antibody in further groups of mice for even greater anti-cancer activity.

Substance | Galectin activity in tumors compared to groups I-II
DAR=2 6-succinyl-33DFTG-trastuzumab | Lower Galectin activity
DAR=8 6-succinyl-33DFTG-trastuzumab | Lower Galectin activity
